# Results published in US20140072613A1, “Compositions and Methods for Treating Cutaneous Scarring” (priority 2012, published 2014).
# Sequences of proteins named here, by UniProt entry; tags and fusion partners are left off. A change or cut given only in a name is not applied to a line headed by its entry. Residues count along the entry.
# UniProt Q9H1R3: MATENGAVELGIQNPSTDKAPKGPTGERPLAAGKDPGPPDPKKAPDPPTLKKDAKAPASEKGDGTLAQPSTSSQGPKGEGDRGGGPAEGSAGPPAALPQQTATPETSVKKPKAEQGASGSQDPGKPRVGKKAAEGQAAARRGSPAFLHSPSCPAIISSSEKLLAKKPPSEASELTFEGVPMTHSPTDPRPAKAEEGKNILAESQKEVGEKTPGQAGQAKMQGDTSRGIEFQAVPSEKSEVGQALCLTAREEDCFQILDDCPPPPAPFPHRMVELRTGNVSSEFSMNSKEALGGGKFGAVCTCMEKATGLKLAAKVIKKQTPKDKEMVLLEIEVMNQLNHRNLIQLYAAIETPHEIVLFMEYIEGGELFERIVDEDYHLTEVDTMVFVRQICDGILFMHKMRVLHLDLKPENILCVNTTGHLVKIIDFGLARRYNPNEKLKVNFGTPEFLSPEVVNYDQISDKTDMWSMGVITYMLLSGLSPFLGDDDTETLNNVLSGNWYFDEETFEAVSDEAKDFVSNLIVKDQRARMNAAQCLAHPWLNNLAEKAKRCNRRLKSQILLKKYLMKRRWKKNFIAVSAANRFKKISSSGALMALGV
# UniProt O14757: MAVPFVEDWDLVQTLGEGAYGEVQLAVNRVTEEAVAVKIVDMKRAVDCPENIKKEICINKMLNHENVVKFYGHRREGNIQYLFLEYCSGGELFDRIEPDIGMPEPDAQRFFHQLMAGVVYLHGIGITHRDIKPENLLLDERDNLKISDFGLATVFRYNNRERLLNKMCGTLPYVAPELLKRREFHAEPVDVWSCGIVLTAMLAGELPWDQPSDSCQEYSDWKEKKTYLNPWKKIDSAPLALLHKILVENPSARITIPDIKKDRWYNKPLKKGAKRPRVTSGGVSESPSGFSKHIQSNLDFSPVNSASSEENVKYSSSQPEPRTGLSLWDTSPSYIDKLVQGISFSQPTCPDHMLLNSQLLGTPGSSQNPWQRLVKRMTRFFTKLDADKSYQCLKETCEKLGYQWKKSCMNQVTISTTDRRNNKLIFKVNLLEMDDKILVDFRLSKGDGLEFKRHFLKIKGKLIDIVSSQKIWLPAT
# UniProt P06493, whole entry: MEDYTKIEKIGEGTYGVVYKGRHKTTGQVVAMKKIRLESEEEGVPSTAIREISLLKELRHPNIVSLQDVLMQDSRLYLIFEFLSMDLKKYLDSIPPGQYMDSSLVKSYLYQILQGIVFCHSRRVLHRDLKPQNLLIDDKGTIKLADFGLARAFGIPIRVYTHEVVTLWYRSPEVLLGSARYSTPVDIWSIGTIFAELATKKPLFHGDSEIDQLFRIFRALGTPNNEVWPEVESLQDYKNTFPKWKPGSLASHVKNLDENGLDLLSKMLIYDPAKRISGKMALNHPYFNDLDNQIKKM
# UniProt O96017, whole entry: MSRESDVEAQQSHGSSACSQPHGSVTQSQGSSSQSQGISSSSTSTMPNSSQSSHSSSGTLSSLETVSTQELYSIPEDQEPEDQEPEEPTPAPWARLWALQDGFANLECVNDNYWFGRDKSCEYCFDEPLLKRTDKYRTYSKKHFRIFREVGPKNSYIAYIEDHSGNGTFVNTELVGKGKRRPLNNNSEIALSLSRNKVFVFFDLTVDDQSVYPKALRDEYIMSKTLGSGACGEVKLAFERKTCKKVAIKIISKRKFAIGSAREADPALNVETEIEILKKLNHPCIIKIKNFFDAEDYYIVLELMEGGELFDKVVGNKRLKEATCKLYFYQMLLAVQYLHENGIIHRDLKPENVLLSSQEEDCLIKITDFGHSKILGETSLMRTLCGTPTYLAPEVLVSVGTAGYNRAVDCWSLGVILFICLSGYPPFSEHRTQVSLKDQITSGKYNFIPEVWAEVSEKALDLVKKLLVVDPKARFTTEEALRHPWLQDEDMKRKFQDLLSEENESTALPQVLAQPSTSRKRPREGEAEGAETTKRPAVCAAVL
# UniProt Q00526: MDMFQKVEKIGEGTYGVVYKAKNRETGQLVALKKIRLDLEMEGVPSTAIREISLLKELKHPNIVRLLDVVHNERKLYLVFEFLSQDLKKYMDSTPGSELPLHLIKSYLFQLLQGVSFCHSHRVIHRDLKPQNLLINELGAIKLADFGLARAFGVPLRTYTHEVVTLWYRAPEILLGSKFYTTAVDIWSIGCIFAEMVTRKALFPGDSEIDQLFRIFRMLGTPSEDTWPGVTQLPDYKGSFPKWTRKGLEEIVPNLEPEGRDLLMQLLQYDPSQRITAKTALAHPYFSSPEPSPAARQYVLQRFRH
# UniProt Q9H4B4: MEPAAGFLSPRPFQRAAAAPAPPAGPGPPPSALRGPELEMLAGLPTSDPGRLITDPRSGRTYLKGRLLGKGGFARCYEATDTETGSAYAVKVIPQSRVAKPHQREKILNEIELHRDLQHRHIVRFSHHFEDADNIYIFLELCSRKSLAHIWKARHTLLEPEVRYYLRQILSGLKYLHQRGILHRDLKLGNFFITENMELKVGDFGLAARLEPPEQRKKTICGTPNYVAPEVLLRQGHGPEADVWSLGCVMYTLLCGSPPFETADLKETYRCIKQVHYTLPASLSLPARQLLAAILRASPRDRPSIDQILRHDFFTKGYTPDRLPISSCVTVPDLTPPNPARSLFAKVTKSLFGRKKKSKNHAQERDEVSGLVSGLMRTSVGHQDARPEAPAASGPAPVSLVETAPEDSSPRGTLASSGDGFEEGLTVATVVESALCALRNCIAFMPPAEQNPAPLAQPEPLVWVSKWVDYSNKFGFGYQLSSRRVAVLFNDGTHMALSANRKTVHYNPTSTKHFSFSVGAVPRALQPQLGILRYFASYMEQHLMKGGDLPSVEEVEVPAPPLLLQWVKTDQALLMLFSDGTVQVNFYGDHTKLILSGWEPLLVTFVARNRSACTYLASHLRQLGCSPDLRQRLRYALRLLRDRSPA
# UniProt Q16832, 22-855: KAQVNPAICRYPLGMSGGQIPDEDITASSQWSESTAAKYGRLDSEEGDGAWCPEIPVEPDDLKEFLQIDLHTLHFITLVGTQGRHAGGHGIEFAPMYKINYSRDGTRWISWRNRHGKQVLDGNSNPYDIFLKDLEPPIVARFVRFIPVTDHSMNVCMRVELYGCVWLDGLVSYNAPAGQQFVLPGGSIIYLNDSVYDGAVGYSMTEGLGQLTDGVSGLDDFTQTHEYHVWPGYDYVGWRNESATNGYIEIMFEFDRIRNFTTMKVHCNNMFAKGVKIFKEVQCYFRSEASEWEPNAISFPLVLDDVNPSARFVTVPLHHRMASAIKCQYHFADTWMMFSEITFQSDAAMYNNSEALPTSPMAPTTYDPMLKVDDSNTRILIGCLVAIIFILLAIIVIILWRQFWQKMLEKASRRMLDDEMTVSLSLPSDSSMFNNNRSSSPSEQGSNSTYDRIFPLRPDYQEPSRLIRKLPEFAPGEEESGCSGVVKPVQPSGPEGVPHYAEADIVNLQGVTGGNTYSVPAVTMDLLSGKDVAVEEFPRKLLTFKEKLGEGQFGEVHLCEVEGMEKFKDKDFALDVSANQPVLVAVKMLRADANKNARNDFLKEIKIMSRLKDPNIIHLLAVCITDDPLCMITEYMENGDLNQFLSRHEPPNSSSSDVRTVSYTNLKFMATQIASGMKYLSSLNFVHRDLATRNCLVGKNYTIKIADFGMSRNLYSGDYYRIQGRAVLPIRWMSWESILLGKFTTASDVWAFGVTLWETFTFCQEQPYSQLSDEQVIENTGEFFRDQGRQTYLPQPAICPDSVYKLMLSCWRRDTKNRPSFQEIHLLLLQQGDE
# UniProt P08631: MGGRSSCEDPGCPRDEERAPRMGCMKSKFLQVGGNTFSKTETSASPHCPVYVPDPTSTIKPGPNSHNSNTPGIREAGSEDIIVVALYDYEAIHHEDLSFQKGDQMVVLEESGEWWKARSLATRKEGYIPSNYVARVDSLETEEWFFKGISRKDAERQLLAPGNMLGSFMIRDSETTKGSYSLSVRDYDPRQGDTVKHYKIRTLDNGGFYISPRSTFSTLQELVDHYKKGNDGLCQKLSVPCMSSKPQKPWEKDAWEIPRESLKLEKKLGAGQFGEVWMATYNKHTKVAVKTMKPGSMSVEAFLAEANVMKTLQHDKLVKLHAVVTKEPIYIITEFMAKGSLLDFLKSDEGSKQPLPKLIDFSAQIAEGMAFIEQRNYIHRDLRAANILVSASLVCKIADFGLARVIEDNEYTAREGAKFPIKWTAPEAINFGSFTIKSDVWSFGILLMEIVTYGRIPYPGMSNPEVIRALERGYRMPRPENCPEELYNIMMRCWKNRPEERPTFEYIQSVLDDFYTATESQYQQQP
# Legend:
# Format in all cases: biochemical
# 266 human kinases [1] = target: 266 human kinases (Homo sapiens, UniProt P00519, Y253F); settings: Abl(Y253F)(h); 100 μM
# Text: (§1) Specifically, in these assays, a positively charged substrate is phosphorylated with a radiolabeled phosphate group from an ATP if the kinase is not inhibited by an inhibitor peptide. The positively charged substrate then is attracted to a negatively charged filter membrane, quantified with a scintillation counter, and compared to a 100% activity control.
# 266 human kinases [2] = target: 266 human kinases (Homo sapiens, UniProt Q9H1R3); settings: MLCK(h); 100 μM
# Text: as §1
# 266 human kinases [3] = target: T1, 266 human kinases (Homo sapiens, UniProt Q8IWQ3); settings: BrSK2(h); 100 μM
# T1 sequence (Q8IWQ3 1-736): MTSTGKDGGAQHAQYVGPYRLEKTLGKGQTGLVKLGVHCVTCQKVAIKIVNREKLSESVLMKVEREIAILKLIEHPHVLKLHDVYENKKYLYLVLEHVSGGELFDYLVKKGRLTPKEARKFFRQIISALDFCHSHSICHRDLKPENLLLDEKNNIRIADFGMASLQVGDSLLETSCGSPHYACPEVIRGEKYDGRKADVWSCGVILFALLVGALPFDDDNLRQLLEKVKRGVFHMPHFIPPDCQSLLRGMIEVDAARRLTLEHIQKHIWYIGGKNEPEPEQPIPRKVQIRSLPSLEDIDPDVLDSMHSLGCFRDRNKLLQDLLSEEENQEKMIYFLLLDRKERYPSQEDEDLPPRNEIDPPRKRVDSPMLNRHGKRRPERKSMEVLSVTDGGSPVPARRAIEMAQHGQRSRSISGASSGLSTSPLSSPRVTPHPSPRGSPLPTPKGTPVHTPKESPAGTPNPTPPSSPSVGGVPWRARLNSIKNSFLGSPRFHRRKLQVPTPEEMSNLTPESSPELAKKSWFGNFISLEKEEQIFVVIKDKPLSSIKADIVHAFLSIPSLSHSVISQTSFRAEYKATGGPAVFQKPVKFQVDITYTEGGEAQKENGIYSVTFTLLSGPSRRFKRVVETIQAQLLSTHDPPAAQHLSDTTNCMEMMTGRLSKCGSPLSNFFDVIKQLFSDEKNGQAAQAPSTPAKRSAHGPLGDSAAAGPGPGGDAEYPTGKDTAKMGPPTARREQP
# Text: as §1
# 266 human kinases [4] = target: 266 human kinases (Homo sapiens, UniProt O14757); settings: CHK1(h); 100 μM
# Text: as §1
# 266 human kinases [5] = target: 266 human kinases (Homo sapiens, UniProt P06493); settings: CDK1/cyclinB(h); 100 μM
# Text: as §1
# 266 human kinases [6] = target: 266 human kinases (Homo sapiens, UniProt O96017); settings: CHK2(h); 100 μM
# Text: as §1
# 266 human kinases [7] = target: 266 human kinases (Homo sapiens, UniProt Q00526); settings: CDK3/cyclinE(h); 100 μM
# Text: as §1
# 266 human kinases [8] = target: 266 human kinases (Homo sapiens, UniProt Q9H4B4); settings: Plk3(h); 100 μM
# Text: as §1
# 266 human kinases [9] = target: T2, 266 human kinases (Homo sapiens, UniProt P29320); settings: EphA3(h); 100 μM
# T2 sequence (P29320 21-983): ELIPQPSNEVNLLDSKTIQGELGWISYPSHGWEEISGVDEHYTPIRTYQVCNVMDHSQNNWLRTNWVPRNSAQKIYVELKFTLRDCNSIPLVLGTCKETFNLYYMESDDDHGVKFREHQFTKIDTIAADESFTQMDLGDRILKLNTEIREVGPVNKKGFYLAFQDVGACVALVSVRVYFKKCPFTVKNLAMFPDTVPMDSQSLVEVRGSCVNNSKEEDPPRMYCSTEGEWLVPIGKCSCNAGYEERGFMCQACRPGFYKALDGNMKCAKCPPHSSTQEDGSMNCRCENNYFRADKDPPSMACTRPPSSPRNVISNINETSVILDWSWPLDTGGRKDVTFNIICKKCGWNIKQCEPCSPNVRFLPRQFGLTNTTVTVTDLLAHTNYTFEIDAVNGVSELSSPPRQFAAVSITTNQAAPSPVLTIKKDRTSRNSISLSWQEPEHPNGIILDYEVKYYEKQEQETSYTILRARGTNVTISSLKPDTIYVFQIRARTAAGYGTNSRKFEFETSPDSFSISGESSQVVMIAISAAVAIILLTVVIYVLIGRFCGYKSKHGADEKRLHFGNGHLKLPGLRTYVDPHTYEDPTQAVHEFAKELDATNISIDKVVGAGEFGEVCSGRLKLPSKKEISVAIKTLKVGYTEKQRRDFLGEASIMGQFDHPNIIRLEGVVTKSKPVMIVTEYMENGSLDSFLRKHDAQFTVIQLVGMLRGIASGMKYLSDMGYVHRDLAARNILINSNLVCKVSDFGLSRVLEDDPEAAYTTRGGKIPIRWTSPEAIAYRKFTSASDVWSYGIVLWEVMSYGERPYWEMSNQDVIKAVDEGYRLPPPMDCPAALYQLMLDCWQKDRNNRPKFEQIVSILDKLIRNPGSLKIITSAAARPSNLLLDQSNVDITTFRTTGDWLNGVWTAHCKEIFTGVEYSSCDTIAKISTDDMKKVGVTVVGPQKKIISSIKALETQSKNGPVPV
# Text: as §1
# 266 human kinases [10] = target: 266 human kinases (Homo sapiens, UniProt P45984); settings: JNK2α2(h); 100 μM
# Text: as §1
# 266 human kinases [11] = target: 266 human kinases (Homo sapiens, UniProt Q16832); settings: DDR2(h); 100 μM
# Text: as §1
# 266 human kinases [12] = target: 266 human kinases (Homo sapiens, UniProt P00533, T790M); settings: EGFR(T790M)(h); 100 μM
# Text: as §1
# 266 human kinases [13] = target: 266 human kinases (Homo sapiens, UniProt P08631); settings: Hck(h); 100 μM
# Text: as §1
# 266 human kinases [14] = target: 266 human kinases (Homo sapiens, UniProt P10721, V654A); settings: cKit(V654A)(h); 100 μM
# Text: as §1
sequence,measurement,setting,value
YARAAARQARAKALNRQLGVA (mammal) [MMI-0200],% activity,266 human kinases [1],102%
same,% activity,266 human kinases [2],103%
same,% activity,266 human kinases [3],102%
same,% activity,266 human kinases [4],115%
same,% activity,266 human kinases [5],115%
same,% activity,266 human kinases [6],105%
same,% activity,266 human kinases [7],104%
same,% activity,266 human kinases [8],107%
same,% activity,266 human kinases [9],117%
same,% activity,266 human kinases [10],109%
same,% activity,266 human kinases [11],104%
same,% activity,266 human kinases [12],113%
same,% activity,266 human kinases [13],107%
same,% activity,266 human kinases [14],113%
